Experimental data reported in patent publication US5525731A, “Camptothecin analogues and methods of preparation thereof” (priority 1994, dated 1996).
Read-outs that look alike come from different tables or passages of the source.

Tested on: B-16 melanoma
Format: in vivo, BD2 F1 mice
Settings: B16 melanoma
Protocol: Average body weight changes were recorded daily.
Tumor: B16 Melanoma Drug A = Camptothecin
Inoculation: 2 × 10^6 cells. S.C.
Schedule: QD × 5. I.P. started day 4

Measured: DEATHS (D/L)

C=C1C(=O)OCc2c1cc1n(c2=O)Cc2c-1nc1ccc(O)cc1c2CC [Compound 33, 7-Ethyl-10-hydroxy-18-nor-anhydrocamptothecin]
0/2: 10 mg/kg, day 7 | 10 mg/kg, day 14 | 30 mg/kg, day 7 | 30 mg/kg, day 14
